Laboratory results published in ChEMBL document CHEMBL4808148, “HDAC6 screening dataset using tau-based substrate in an enzymatic assay yields selective inhibitors and activators” (2021).
The strong results were mostly taken out for another list; the other results follow.

Molecular target: T1, Protein deacetylase HDAC6 (Homo sapiens) (UniProt Q9UBN7)
T1 sequence (whole entry): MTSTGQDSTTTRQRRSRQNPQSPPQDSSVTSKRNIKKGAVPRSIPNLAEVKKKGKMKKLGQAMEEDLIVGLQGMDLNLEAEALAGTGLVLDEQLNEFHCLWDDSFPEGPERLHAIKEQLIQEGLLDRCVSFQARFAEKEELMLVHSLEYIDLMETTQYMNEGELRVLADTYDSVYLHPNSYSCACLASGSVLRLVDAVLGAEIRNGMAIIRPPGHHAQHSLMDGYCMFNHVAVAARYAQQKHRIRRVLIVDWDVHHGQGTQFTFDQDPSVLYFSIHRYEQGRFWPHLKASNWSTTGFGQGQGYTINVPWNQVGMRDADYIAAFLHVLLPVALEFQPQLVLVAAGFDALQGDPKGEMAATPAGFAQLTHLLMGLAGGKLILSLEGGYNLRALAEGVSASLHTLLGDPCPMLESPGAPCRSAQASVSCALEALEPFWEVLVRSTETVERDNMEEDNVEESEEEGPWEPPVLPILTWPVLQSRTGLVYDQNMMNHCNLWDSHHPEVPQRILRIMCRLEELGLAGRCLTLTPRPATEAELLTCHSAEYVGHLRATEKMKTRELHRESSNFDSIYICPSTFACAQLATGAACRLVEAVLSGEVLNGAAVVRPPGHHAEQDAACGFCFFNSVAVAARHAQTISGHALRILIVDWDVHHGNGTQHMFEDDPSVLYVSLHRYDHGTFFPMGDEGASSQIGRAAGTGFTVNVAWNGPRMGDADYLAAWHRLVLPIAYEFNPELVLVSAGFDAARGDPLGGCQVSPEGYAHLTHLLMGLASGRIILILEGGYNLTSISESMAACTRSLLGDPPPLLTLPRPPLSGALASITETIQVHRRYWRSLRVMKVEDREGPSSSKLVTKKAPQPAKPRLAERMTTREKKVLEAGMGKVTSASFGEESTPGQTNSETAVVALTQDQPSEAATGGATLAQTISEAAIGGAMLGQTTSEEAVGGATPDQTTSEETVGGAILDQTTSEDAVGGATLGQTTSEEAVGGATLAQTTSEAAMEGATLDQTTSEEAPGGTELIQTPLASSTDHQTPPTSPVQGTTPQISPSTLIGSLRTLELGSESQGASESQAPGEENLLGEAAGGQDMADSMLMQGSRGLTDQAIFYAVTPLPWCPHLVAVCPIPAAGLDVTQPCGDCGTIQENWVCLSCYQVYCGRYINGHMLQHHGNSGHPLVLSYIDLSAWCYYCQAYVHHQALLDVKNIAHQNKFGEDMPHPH
Conditions: at 10 µM

SMILES	inhibition [%]
COc1ccc(CC(C)NCC(O)c2ccc(O)c(NC=O)c2)cc1 (stereo unspecified)	-7.47
